Earlier results in publication PMC3684770, “S[+] Apomorphine is a CNS penetrating activator of the Nrf2-ARE pathway with activity in mouse and patient fibroblast models of amyotrophic lateral sclerosis^” (Free Radical Biology & Medicine, 2013).

Details: human, in vivo; cited from earlier work

Nc1nc2ccc(OC(F)(F)F)cc2s1 [riluzole]
prolongation of average survival: approximately 3 months
